From patent US20110135603A1, “INHIBITORS OF PHOSPHATIDYLINOSITOL 3-KINASE” (VERTEX PHARMACEUTICALS INCORPORATED, priority 2008, published 2011)

Experiment: Evaluation of Brain/Plasma Concentrations
Conditions: Sprague-Dawley rats
Experimental: Selected compounds of the invention were evaluated for their ability to cross the blood-brain barrier. Accordingly, a compound of the invention was administered to Sprague-Dawley rats [10 mg/kg as a 1 mg/mL 0.5% MC solution] via oral intragastric delivery. Two hours after compound administration, the rats were anaesthetized by intramuscular administration of a 2 mL/kg Ketamine/Rompun/Acepromazine cocktail and placed onto necropsy table. The abdominal cavity was then opened with a V-cut and 300 microliters of blood was drawn directly from left ventricle for plasma concentration analysis. The blood sample was stored on ice in a 1.5 mL Eppendorf tube (containing K2EDTA) and subsequently centrifuged for 2 minutes at 2000 rpm. After centrifugation, 110 microliters of plasma was transferred to a fresh tube and stored at −70° C. until analysis. The rat was perfused with cold saline (containing 50 IU of heparin) at 20 mL/min from an infusion pump through the left ventricle of the heart. Immediately after starting the perfusion, a small cut in the right atria was made so that heparinized saline would flow through the body. The perfusion was continued until the liver appeared pale in color (about 60 mL of cold saline). The brain was removed and placed on ice, blotted dry, weighed, placed in a tube, frozen with liquid nitrogen, and stored at −70° C. until further analysis was performed.
In order to determine compound concentration in the plasma, the blood sample was prepared by protein precipitation with addition of acetonitrile at a ratio of 1:4. After vortexing and centrifugation, the supernatant was analyzed by high performance liquid chromatography-tandem mass spectrometry in positive Atmospheric Pressure Chemical Ionization (APCI) ionization mode. […] The calibration curve was analyzed and the instrument response (area counts for compound of interest/Area Counts for internal Standard) are used to generate a calibration curve. The instrument response for study samples were compared to the calibration curve and the concentration back-calculated from the curve. […]

- Brain Conc. (10 mg/kg oral intragastric in 0.5% MC, two hours after administration, average of two or three animals): 169 ng/g
- Plasma Conc. (10 mg/kg oral intragastric in 0.5% MC, two hours after administration, based on a density of rat plasma of 1.0 g/mL): 390 ng/mL
- Brain/Plasma Ratio (10 mg/kg oral, two hours, average brain/plasma ratio based on data obtained for each animal): 0.4
SMILES: CCCOCCNC(=O)Nc1nc2ccc(-c3cncc(C(F)(F)F)c3)cc2s1
